The entries are a selection whose mix differs from that of the whole data set. Records with an inconclusive call do not appear. Activity calls are given as the source filed them. No stated cut-off is given here; in the data, active means inhibition above about 30%; inconclusive means mostly about 10% to 28%; inactive means weaker than that.
Each compound was assayed against Interleukin-1 receptor-like 1 (Homo sapiens) (UniProt Q01638) (assay: blocks human ST2 binding to IL-33, primary screen, biochemical, AlphaLISA (AID 1259354)). Conditions: AlphaLISA ST2-Fc/biotin-IL-33 interaction, 1 h; at 17 µM; hits give high values.

Chains of the proteins cited; added tags and fusions are not shown. Lines headed by an entry give the natural chain unless they say otherwise; changes in a name come on top.
UniProt Q01638: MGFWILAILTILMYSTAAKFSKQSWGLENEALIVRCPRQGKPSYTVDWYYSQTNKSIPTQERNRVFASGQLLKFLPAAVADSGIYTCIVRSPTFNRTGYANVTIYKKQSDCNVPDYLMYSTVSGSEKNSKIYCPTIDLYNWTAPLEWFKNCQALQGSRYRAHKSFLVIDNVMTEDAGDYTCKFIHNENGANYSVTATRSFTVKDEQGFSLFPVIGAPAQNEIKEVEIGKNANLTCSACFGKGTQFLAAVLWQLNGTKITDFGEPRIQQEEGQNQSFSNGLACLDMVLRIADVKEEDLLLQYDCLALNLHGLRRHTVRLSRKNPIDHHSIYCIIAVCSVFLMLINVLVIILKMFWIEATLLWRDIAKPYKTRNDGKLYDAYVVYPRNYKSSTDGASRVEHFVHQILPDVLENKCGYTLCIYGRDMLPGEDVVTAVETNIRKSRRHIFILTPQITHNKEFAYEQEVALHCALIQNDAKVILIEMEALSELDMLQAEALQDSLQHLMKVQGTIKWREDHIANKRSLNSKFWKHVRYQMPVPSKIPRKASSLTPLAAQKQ

| Structure (SMILES) | inhibition |
| --- | --- |
| O=[N+]([O-])c1cc2c(c([N+](=O)[O-])c1)-c1c(cc([N+](=O)[O-])cc1[N+](=O)[O-])C2=Cc1ccccc1O | active: 44% |
| O=[N+]([O-])c1ccc(-n2ncc3c([N+](=O)[O-])cc([N+](=O)[O-])cc32)cc1 | active: 49% |
